Among the data in article PMC8924211 (Nature Communications, 2022) are EC50 values, retold here.

Test in all cases: Calcium assay, HEK293/Gα16 cells, GAL2R mutants
Assay type in all cases: cell-based

Experiment [1] addresses T1, GAL2R mutants (Homo sapiens, UniProt O43603, F264A).
T1 construct: expressed in transfected cells; host or cells: HEK293
T1 sequence (O43603 1-387 F264A): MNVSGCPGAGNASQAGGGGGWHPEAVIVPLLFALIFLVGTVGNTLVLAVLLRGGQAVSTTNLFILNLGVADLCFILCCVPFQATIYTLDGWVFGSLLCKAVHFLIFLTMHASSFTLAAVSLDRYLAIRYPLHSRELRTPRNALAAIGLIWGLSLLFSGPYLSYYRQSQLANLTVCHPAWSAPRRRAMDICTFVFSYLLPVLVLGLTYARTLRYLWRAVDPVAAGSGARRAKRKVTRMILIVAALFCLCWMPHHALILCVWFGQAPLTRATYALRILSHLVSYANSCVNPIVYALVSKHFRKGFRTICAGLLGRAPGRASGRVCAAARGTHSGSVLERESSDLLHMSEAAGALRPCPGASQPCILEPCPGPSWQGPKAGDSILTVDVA
The following applies: GAL2R F264ECL3A, spexin.

Experiment [2] deals with T2, GAL2R mutants (Homo sapiens, UniProt O43603, H102A).
T2 construct: expressed in transfected cells; host or cells: HEK293
T2 sequence (O43603 1-387 H102A): T1 sequence (O43603 1-387 F264A) with H102A, A264F
The following applies: GAL2R H1023.29A, spexin.

For experiment [3], the target named is T3, GAL2R mutants (Homo sapiens, UniProt O43603, L169A).
T3 construct: expressed in transfected cells; host or cells: HEK293
T3 sequence (O43603 1-387 L169A): T1 sequence (O43603 1-387 F264A) with L169A, A264F
The following applies: GAL2R L169ECL2A, spexin.

For experiment [4], the target named is T4, GAL2R mutants (Homo sapiens, UniProt O43603, L266A).
T4 construct: expressed in transfected cells; host or cells: HEK293
T4 sequence (O43603 1-387 L266A): T1 sequence (O43603 1-387 F264A) with A264F, L266A
The following applies: GAL2R L266ECL3A; spexin, HEK293/Gα16; mean ± S.E.M.

In experiment [5] the target is T5, GAL2R mutants (Homo sapiens, UniProt O43603, T267A).
T5 construct: expressed in transfected cells; host or cells: HEK293
T5 sequence (O43603 1-387 T267A): T1 sequence (O43603 1-387 F264A) with A264F, T267A
The note with it: GAL2R T2677.28A; spexin, HEK293/Gα16; mean ± S.E.M.

Experiment [6] addresses T6, GAL2R mutants (Homo sapiens, UniProt O43603, Y271A).
T6 construct: expressed in transfected cells; host or cells: HEK293
T6 sequence (O43603 1-387 Y271A): T1 sequence (O43603 1-387 F264A) with A264F, Y271A
The note with it: GAL2R Y2717.32A; spexin, HEK293/Gα16; mean ± S.E.M.

Residue numbers refer to the chain shown, from its start. A value given as a limit tells only on which side of the number the result lay.

A word on the EC50: it is the concentration needed to bring the measured effect to its halfway point.

For spexin, the EC50 is more than 100 µM in experiment [1] (HEK293/Gα16); more than 100 µM in experiment [1] (replicate 1); more than 100 µM in experiment [1] (replicate 2); more than 100 µM in experiment [1] (replicate 3); “no response” in experiment [2] (replicate 1); “no response” in experiment [2] (replicate 2). In addition, the EC50 entry is “no response” in experiment [2] (replicate 3); 4.71 ± 1.56 µM in experiment [3] (HEK293/Gα16, mean ± S.E.M.); 1.827 µM in experiment [3] (replicate 3); 17.5 ± 3.95 µM in experiment [4]; 4 ± 3.27 µM in experiment [5]; 2.76 ± 1.61 µM in experiment [6].
